Test results as given in patent US20200109194A1.

By UniProt entry, the sequences of proteins in these tests, tags left out. Residues count along the entry.
UniProt Q8IYR6, 40-380: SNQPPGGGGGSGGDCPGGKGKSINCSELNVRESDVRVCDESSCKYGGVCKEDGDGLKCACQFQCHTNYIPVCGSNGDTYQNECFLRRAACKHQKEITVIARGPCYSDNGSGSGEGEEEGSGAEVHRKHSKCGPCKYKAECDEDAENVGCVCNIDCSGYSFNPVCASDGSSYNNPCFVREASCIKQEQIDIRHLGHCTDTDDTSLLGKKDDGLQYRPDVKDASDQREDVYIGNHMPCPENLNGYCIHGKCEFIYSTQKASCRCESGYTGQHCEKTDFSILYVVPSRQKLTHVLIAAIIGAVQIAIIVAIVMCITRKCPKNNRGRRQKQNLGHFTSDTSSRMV

Target: full-length human TMEFF1 (M1-V380 plus Myc-DDK, plasmid BBP156) on the surface of HEK-293 cells (human) (UniProt Q8IYR6)
Test: cell-based or functional assay

Substance M3 conjugated to vcMMAE (antibody) has a cell killing (CellTiter Glo, 72 hours) of 40%.
